Test results: US6936585B2, “Corticotropin releasing factor 2 receptor agonists” (priority 2002, dated 2005)

Experiments:
CRF1R = biological target: T1, CRF1R (Homo sapiens, UniProt P34998); experiment: CRF1R agonist activation (EC50 / Emax), called comparative CRF binding; assay type: cell-based; details: for EC50: CRF1R EC50; for Emax: read-out: CRF1R Emax
T1 sequence (P34998 24-415): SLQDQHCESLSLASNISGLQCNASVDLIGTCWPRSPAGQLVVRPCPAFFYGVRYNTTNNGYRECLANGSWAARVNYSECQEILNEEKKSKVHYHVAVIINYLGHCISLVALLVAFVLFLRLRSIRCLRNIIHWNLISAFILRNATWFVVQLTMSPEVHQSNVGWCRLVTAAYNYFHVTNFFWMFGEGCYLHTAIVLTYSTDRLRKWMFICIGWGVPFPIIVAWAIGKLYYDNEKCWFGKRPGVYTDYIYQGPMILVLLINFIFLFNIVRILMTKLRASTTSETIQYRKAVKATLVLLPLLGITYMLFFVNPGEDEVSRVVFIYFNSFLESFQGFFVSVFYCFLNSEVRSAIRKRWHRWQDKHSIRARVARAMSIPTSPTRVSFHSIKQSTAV
Summary of the method: (§1)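 Cells expressing human CRF1R or CRF2R are exposed to peptide or vehicle control, and receptor activation is read as cAMP induction, measured in cell lysates or via a CRE-linked reporter gene.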

CRF2R = biological target: T2, CRF2R (Homo sapiens, UniProt Q13324); experiment: CRF2R agonist activation (EC50 / Emax), called comparative CRF binding; assay type: cell-based; details: for Emax: read-out: CRF2R Emax
T2 sequence (Q13324 1-411): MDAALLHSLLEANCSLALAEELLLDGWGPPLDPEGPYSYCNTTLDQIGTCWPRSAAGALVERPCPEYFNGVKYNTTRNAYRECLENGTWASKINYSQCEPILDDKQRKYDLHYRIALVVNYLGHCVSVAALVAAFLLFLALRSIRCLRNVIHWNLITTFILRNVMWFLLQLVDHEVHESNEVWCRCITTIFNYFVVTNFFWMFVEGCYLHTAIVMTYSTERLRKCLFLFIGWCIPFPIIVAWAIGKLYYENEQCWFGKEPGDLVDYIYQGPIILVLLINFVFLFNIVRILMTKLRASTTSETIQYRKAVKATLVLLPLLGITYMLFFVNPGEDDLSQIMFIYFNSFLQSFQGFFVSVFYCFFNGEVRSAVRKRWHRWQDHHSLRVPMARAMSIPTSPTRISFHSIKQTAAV
Summary of the method: as §1

| SMILES | EC50 (CRF1R) | Emax (CRF1R) | EC50 (CRF2R) | Emax (CRF2R) |
| --- | --- | --- | --- | --- |
| CC[C@H](C)[C@H](NC(=O)[C@H](CCC(=O)O)NC(=O)[C@@H](NC(=O)[C@@H](NC(=O)[C@H](CCCCN)NC(=O)[C@H](CCCNC(=N)N)NC(=O)[C@H](CC(C)C)NC(=O)[C@H](CC(C)C)NC(=O)[C@H](CCC(N)=O)NC(=O)[C@H](Cc1ccccc1)NC(=O)[C@@H]1CCCN1C(=O)[C@H](CC(C)C)NC(=O)[C@H](CC(=O)O)NC(=O)[C@@H](NC(=O)[C@H](CO)NC(=O)[C@@H](NC(=O)[C@@H]1CCCN1C(=O)[C@@H]1CCCN1C(=O)CNC(=O)[C@@H]1CCC(=O)N1)[C@@H](C)CC)[C@@H](C)CC)C(C)C)[C@@H](C)CC)C(=O)N[C@@H](CCC(=O)O)C(=O)N[C@@H](CCCCN)C(=O)N[C@@H](CCC(N)=O)C(=O)N[C@@H](CCC(=O)O)C(=O)N[C@@H](CCCCN)C(=O)N[C@@H](CCC(=O)O)C(=O)N[C@@H](CCCCN)C(=O)N[C@@H](CCC(N)=O)C(=O)N[C@@H](CCC(N)=O)C(=O)N[C@@H](C)C(=O)N[C@H](C(=O)N[C@H](C(=O)N[C@@H](CC(N)=O)C(=O)N[C@@H](C)C(=O)N[C@@H](CCCNC(=N)N)C(=O)N[C@@H](CC(C)C)C(=O)N[C@@H](CC(C)C)C(=O)N[C@@H](CC(=O)O)C(=O)N[C@@H](CCCNC(=N)N)C(=O)N[C@H](C(N)=O)C(C)C)[C@@H](C)O)[C@@H](C)O [compound 351] | ≥ 1000 nM | 85.7% | 12.9 nM | 97.4% |
| CC[C@H](C)[C@H](NC(=O)[C@H](CCCNC(=N)N)NC(=O)[C@H](C)NC(=O)[C@H](CC(C)C)NC(=O)[C@H](CC(C)C)NC(=O)[C@H](CCCNC(=N)N)NC(=O)[C@H](C)NC(=O)[C@H](CC(N)=O)NC(=O)[C@H](CC(N)=O)NC(=O)[C@H](C)NC(=O)[C@H](C)NC(=O)[C@H](CCC(N)=O)NC(=O)[C@H](CCC(N)=O)NC(=O)[C@H](CCCCN)NC(=O)[C@H](CCC(=O)O)NC(=O)[C@H](CCCCN)NC(=O)[C@H](CCC(=O)O)NC(=O)[C@H](CCC(N)=O)NC(=O)[C@H](CCCCN)NC(=O)[C@H](CCC(=O)O)NC(=O)[C@@H](NC(=O)[C@H](CCC(=O)O)NC(=O)[C@@H](NC(=O)[C@@H](NC(=O)[C@H](CCCCN)NC(=O)[C@H](CCCNC(=N)N)NC(=O)[C@H](CC(C)C)NC(=O)[C@H](CC(C)C)NC(=O)[C@H](CCC(N)=O)NC(=O)[C@H](Cc1ccccc1)NC(=O)[C@@H]1CCCN1C(=O)[C@@H](NC(=O)[C@H](CC(=O)O)NC(=O)[C@@H](NC(=O)[C@H](CO)NC(=O)[C@@H](NC(=O)[C@@H]1CCCN1C(=O)[C@@H]1CCCN1C(=O)CNC(=O)[C@@H]1CCC(=O)N1)[C@@H](C)CC)[C@@H](C)CC)C(C)C)C(C)C)[C@@H](C)CC)[C@@H](C)CC)C(N)=O [compound 383] | ≥ 1000 nM | 55% | 9.31 nM | 96% |
| CC[C@H](C)[C@H](NC(=O)[C@@H](NC(=O)[C@H](C)NC(=O)[C@H](CC(C)C)NC(=O)[C@H](CC(C)C)NC(=O)[C@H](CC(C)C)NC(=O)[C@H](C)NC(=O)[C@H](CC(N)=O)NC(=O)[C@H](CC(N)=O)NC(=O)[C@H](C)NC(=O)[C@H](C)NC(=O)[C@H](CCC(N)=O)NC(=O)[C@H](CCC(N)=O)NC(=O)[C@H](CCCCN)NC(=O)[C@H](CCC(=O)O)NC(=O)[C@H](CCCCN)NC(=O)[C@H](CCC(=O)O)NC(=O)[C@H](CCC(N)=O)NC(=O)[C@H](CCCCN)NC(=O)[C@H](CCC(=O)O)NC(=O)[C@@H](NC(=O)[C@H](CCC(=O)O)NC(=O)[C@@H](NC(=O)[C@H](CCSC)NC(=O)[C@H](CCCCN)NC(=O)[C@H](CCC(=O)O)NC(=O)[C@H](CC(C)C)NC(=O)[C@H](CC(C)C)NC(=O)[C@H](CCC(N)=O)NC(=O)[C@H](CC(C)C)NC(=O)[C@@H]1CCCN1C(=O)[C@H](CC(C)C)NC(=O)[C@H](CC(=O)O)NC(=O)[C@@H](NC(=O)[C@H](CO)NC(=O)[C@@H](NC(=O)[C@@H]1CCCN1C(=O)[C@@H]1CCCN1C(=O)CNC(=O)[C@@H]1CCC(=O)N1)[C@@H](C)CC)[C@@H](C)CC)[C@@H](C)CC)[C@@H](C)CC)[C@@H](C)O)C(N)=O [compound 249] | ≥ 1000 nM | 50% | 12.2 nM | 92% |
| CC[C@H](C)[C@H](NC(=O)[C@@H](NC(=O)[C@H](C)NC(=O)[C@H](CC(C)C)NC(=O)[C@H](CC(C)C)NC(=O)[C@H](CC(C)C)NC(=O)[C@H](C)NC(=O)[C@H](CC(N)=O)NC(=O)[C@H](CC(N)=O)NC(=O)[C@H](C)NC(=O)[C@H](C)NC(=O)[C@H](CCC(N)=O)NC(=O)[C@H](CCC(N)=O)NC(=O)[C@H](CCCCN)NC(=O)[C@H](CCC(=O)O)NC(=O)[C@H](CCCCN)NC(=O)[C@H](CCC(=O)O)NC(=O)[C@H](CCC(N)=O)NC(=O)[C@H](CCCCN)NC(=O)[C@H](CCC(=O)O)NC(=O)[C@@H](NC(=O)[C@H](CCC(=O)O)NC(=O)[C@@H](NC(=O)[C@H](CC(C)C)NC(=O)[C@H](CC(C)C)NC(=O)[C@H](CCCNC(=N)N)NC(=O)[C@H](CC(C)C)NC(=O)[C@H](CC(C)C)NC(=O)[C@H](CCC(N)=O)NC(=O)[C@H](Cc1ccccc1)NC(=O)[C@@H]1CCCN1C(=O)[C@H](CC(C)C)NC(=O)[C@H](CC(=O)O)NC(=O)[C@@H](NC(=O)[C@H](CO)NC(=O)[C@@H](NC(=O)[C@@H]1CCCN1C(=O)[C@@H]1CCCN1C(=O)CNC(=O)[C@@H]1CCC(=O)N1)[C@@H](C)CC)[C@@H](C)CC)[C@@H](C)CC)[C@@H](C)CC)[C@@H](C)O)C(N)=O [compound 360] |  | 100% |  | 93% |
| CC[C@H](C)[C@H](NC(=O)[C@@H](NC(=O)[C@H](C)NC(=O)[C@H](CC(C)C)NC(=O)[C@H](CC(C)C)NC(=O)[C@H](CC(C)C)NC(=O)[C@H](C)NC(=O)[C@H](CC(N)=O)NC(=O)[C@H](CC(N)=O)NC(=O)[C@H](C)NC(=O)[C@H](C)NC(=O)[C@H](CCC(N)=O)NC(=O)[C@H](CCC(N)=O)NC(=O)[C@H](CCCCN)NC(=O)[C@H](CCC(=O)O)NC(=O)[C@H](CCCCN)NC(=O)[C@H](CCC(=O)O)NC(=O)[C@H](CCC(N)=O)NC(=O)[C@H](CCCCN)NC(=O)[C@H](CCC(=O)O)NC(=O)[C@@H](NC(=O)[C@H](CCC(=O)O)NC(=O)[C@@H](NC(=O)[C@H](CCSC)NC(=O)[C@H](CCCCN)NC(=O)[C@H](CCCNC(=N)N)NC(=O)[C@H](CC(C)C)NC(=O)[C@H](CC(C)C)NC(=O)[C@H](CCC(=O)O)NC(=O)[C@H](CC(C)C)NC(=O)[C@H](CO)NC(=O)[C@H](CC(C)C)NC(=O)[C@H](CC(=O)O)NC(=O)[C@@H](NC(=O)[C@H](CO)NC(=O)[C@@H](NC(=O)[C@@H]1CCCN1C(=O)[C@@H]1CCCN1C(=O)CNC(=O)[C@@H]1CCC(=O)N1)[C@@H](C)CC)[C@@H](C)CC)[C@@H](C)CC)[C@@H](C)CC)[C@@H](C)O)C(N)=O [compound 30] |  | 100% |  | 85.5% |
| CC[C@H](C)[C@H](NC(=O)[C@@H](NC(=O)[C@H](C)NC(=O)[C@H](CC(C)C)NC(=O)[C@H](CC(C)C)NC(=O)[C@H](CC(C)C)NC(=O)[C@H](C)NC(=O)[C@H](CC(N)=O)NC(=O)[C@H](CC(N)=O)NC(=O)[C@H](C)NC(=O)[C@H](C)NC(=O)[C@H](CCC(N)=O)NC(=O)[C@H](CCC(N)=O)NC(=O)[C@H](CCCCN)NC(=O)[C@H](CCC(=O)O)NC(=O)[C@H](CCCCN)NC(=O)[C@H](CCC(=O)O)NC(=O)[C@H](CCC(N)=O)NC(=O)[C@H](CCCCN)NC(=O)[C@H](CCC(=O)O)NC(=O)[C@@H](NC(=O)[C@H](CCC(=O)O)NC(=O)[C@@H](NC(=O)[C@H](CCSC)NC(=O)[C@H](CCCCN)NC(=O)[C@H](CCCNC(=N)N)NC(=O)[C@H](CC(C)C)NC(=O)[C@H](CC(C)C)NC(=O)[C@H](Cc1ccc(O)cc1)NC(=O)[C@@H](NC(=O)[C@@H]1CCCN1C(=O)[C@H](CC(C)C)NC(=O)[C@H](CC(=O)O)NC(=O)[C@@H](NC(=O)[C@H](CO)NC(=O)[C@@H](NC(=O)[C@@H]1CCCN1C(=O)[C@@H]1CCCN1C(=O)CNC(=O)[C@@H]1CCC(=O)N1)[C@@H](C)CC)[C@@H](C)CC)[C@@H](C)CC)[C@@H](C)CC)[C@@H](C)CC)[C@@H](C)O)C(N)=O [compound 237] |  | 18% |  | 93% |
